These are literature values, as cited in US20230192799A1, “CNP Variants and Conjugates Thereof” (BIOMARIN PHARMACEUTICAL INC., priority 2019, published 2023).

For this data set the following is noted: in vivo in humans; cited from earlier work.

For GLSKGCFGLKLDRIGSMSGLGC [CNP22], the plasma half-life was 2.6 min.
